# Test results taken from patent US20260256729A1, “CARBAMOYL PHEN[…] AS TAAR1 AGONISTS” (AXSOME THERAPEUTICS, INC., priority 2022, published 2026).
# Protein sequences, listed by entry. Tags and fused reporters are not part of them.
# UniProt P23975, whole entry: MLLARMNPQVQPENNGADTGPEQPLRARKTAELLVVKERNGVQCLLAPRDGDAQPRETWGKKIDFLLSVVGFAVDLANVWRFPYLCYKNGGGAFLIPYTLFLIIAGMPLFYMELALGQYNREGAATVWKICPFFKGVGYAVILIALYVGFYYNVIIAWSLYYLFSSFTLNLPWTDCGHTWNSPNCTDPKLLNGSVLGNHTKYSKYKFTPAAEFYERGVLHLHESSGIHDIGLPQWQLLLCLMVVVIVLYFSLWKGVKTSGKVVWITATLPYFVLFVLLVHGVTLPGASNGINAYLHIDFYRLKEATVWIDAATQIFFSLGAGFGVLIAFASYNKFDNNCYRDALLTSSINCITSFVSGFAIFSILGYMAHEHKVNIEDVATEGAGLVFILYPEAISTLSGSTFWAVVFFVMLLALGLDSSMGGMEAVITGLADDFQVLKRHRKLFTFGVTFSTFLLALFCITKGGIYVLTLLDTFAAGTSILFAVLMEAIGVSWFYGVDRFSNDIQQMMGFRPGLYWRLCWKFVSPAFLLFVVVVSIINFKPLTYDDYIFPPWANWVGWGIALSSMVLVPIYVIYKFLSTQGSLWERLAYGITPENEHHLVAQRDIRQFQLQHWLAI
# Biological target: human norepinephrine transporter (hNET) (Homo sapiens, UniProt P23975)
# Assay: hNET inhibition, in vitro binding and functional studies
compound,measurement,value
CC(NC(C)(C)C)C(=O)c1cccc(Cl)c1 (stereo not shown) [Bupropion],IC50,2790 nM
